Key:
[1] = Plasma protein binding (modified ultrafiltration), mouse; conditions: Table 3
[2] = Plasma protein binding (modified ultrafiltration), human; conditions: Table 3

In the case of “Ac-Phe(2-CI)-[ProM-2][ProM-1]-NH2 [Compound 4C]”, the “Plasma protein binding, fb (bound fraction)” value [1] is reported as 5.5 and the “Plasma protein binding, fb (bound fraction)” value [2] is reported as 4.5.
